# Patent US11000601B2, “Conjugated biological molecules, pharmaceutical compositions and methods” (OBI Pharma, Inc., priority 2016, dated 2021)
# Assay: Body weight, mortality and signs of overt toxicity in NCI-N87 implanted female nu/nu mice
# Assay type: in vivo, mouse
# Details: 0.191 mg/kg × 4 IP once weekly; group mean
# Experimental: In a xenograft tumor model of human gastric carcinoma, viable NCI-N87 (ATCC CRL-5822) cells were subcutaneously (SC) implanted (2.5×10^6 cells/mL with matrigel (1:1) at 0.2 mL/mouse) into the right flank of female nu/nu mice. Tumor implanted mice were divided into seven treatment groups, each group containing eight animals, and one group containing five animals, and dose administrations were initiated one day after cell implantation (denoted as Day 1).
# Female nude (nu/nu) mice aged 5-6 weeks obtained from BioLasco Taiwan (under Charles River Laboratories Licensee) were used. The animals were housed in individually ventilated cages (IVC, 36 Mini Isolator system). The allocation for 3 animals was 27×20×14 in cm. All animals were maintained in a hygienic environment under controlled temperature (20-24° C.) and humidity (30%-70%) with 12-hour light/dark cycle. Free access to standard lab diet [MFG (Oriental Yeast Co., Ltd., Japan)] and autoclaved tap water in bottles were granted. All aspects of this work including housing, experimentation, and animal disposal were performed in general accordance with the “Guide for the Care and Use of Laboratory Animals: Eighth Edition” (National Academies Press, Washington, D.C., 2011) in our AAALAC-accredited laboratory animal facility. In addition, the animal care and use protocol was reviewed and approved by the IACUC at Eurofins Panlabs Taiwan, Ltd.
# The tumor volumes, body weights, mortality, and signs of overt toxicity were monitored and recorded twice weekly for 100 days. Tumor growth inhibition was calculated as T/C (treatment/control)×100%. A T/C value≤42% compared to that of the vehicle control group was considered significant anti-tumor activity. Two-way ANOVA followed by Bonferroni test was used to ascertain the statistically significant significance of groups compared to respective vehicle control (*p<0.05).
smiles,measurement,value
"CC[C@H](C)[C@@H]([C@@H](CC(=O)N1CCC[C@H]1[C@H](OC)[C@@H](C)C(=O)N[C@H](C)[C@@H](O)c1ccccc1)OC)N(C)C(=O)[C@@H](NC(=O)[C@@H](NC)C(C)C)C(C)C [MMAE, monomethyl auristatin E]","Body Weight Day 22, Mean",24.1 g
same,"Body Weight Day 29, Mean",25.3 g
same,"Body Weight Day 39, Mean",25.7 g
same,"Body Weight Day 43, Mean",25.7 g
same,"Body Weight Day 46, Mean",26.3 g
same,"Body Weight Day 53, Mean",26.6 g
